{
  "source": "patent US20060148760A1",
  "about": "“Method for the sysnthesis of compounds of formula I and their uses thereof” (TransTech Pharma, priority 2000, published 2006)",
  "key": {"[1]": {"molecular_target": "T1, β-amyloid—RAGE interaction (Homo sapiens, UniProt Q15109)", "T1 construct": "generate soluble RAGE (sRAGE) comprised of the V and C domains", "assay": "ELISA assay, β-amyloid binding to sRAGE", "conditions": "plate-bound β-amyloid", "method": "(§1) S100b, β-amyloid and CML (500 ng/100 μL/well) in 100 mM sodium bicarbonate/sodium carbonate buffer (pH 9.8) is loaded onto the wells of a NUNC Maxisorp flat bottom 96—well microtitre plate. The plate is incubated at 4° C. overnight. The wells are aspirated and treated with 50 mM imidazole buffer saline (pH 7.2) (with 1 mM CaCl2/MgCl2) containing 1% bovine serum albumin (BSA) (300 μL/well) for two h at 37° C.\n(§2) Test compounds are dissolved in nanopure water (concentration: 10-100 μM). DMSO may be used as co-solvent. 25 μL of test compound solution in 2% DMSO is added, along with 75 μL sRAGE (4.0×10^−4 mg/mL FAC) to each well and samples are incubated for 1 h at 37° C. The wells are washed 3 times with 155 mM NaCl pH 7.2 buffer saline and are soaked 10 seconds between each wash. Non-radioactive binding is performed by adding:\n(§3) 10 μL Biotinylated goat F(ab′)2 Anti-mouse IgG. (8.0×10^−4 mg/mL, FAC)\n(§4) 10 μL Alk-phos-Sterptavidin (3×10^−3 mg/mL FAC)\n(§5) 10 μL Polyclonal antibody for sRAGE (FAC 6.0×10^−3 mg/mL) to 5 mL 50 mM imidazole buffer saline (pH 7.2) containing 0.2% bovine serum albumin and 1 mM CaCl2. The mixture is incubated for 30 minutes at 37° C. […] The reaction is quenched with 10 μL of stop solution (0.5 N NaOH in 50% ethanol) and the absorbance is measured spectrophotometrically with a microplate reader at 405 nm. […]"}, "S-100b/RAGE interaction": {"molecular_target": "T2, S-100b/RAGE interaction (Homo sapiens, UniProt Q15109)", "T2 construct": "generate soluble RAGE (sRAGE) comprised of the V and C domains", "assay": "ELISA assay, S-100b binding to sRAGE", "conditions": "plate-bound S100b, concentration at which 50% signal is inhibited", "method": "as §1, §2, §3, §4, §5"}, "[2]": {"molecular_target": "T3, Carboxymethyl Lysine (CML)/RAGE interaction (Homo sapiens, UniProt Q15109)", "T3 construct": "generate soluble RAGE (sRAGE) comprised of the V and C domains", "assay": "ELISA assay, CML binding to sRAGE", "conditions": "plate-bound CML", "method": "as §1, §2, §3, §4, §5"}},
  "note": "Where a name gives a salt, the structure may show the parent alone.",
  "data": [
    {"smiles": "CCCCOc1cc(C(=O)OCCN(CC)CC)ccc1NC(=O)[C@H](N)Cc1ccc2ccccc2c1", "note": "[Example 1, (R)-3-(2-Naphthyl)-2-aminopropionic Acid 4-Diethylaminoethoxycarbonyl-2-butoxyaniline Amide Dihydrochloride]", "values": [
      {"measurement": "IC50", "setting": "[1]", "result": 3400, "unit": "nM"},
      {"measurement": "IC50", "setting": "S-100b/RAGE interaction", "result": 1750, "unit": "nM"},
      {"measurement": "IC50", "setting": "[2]", "result": 2290, "unit": "nM"}
    ]}
  ]
}
